System: quinpirole-induced yawning in rats
Assay: antagonism of quinpirole-induced yawning in rats
Design: species or system Male Sprague Dawley Rats
Conditions: rat, in vivo
Description: Yawning is a behavior that has been linked to activation of dopaminergic neurotransmission. Therefore, the blockage of quinpirole-induced yawning in rats has been used as an animal model to study the potential antagonism of migraine symptoms.
Male Sprague Dawley Rats were used in this example. The animals were allowed 12 day acclimatization before testing and at the time of the study, their body weights ranged from 280-330 grams. The rats were housed in standard size steel cages with four animals per cage and were maintained on a 12 hour light/dark schedule with the lights being on from 6:00 a.m. to 6:00 p.m. All tests were performed between 8:00 a.m. and 2:00 p.m. Six animals were used per group.
S-(−)-3-[3-(methylsulfonyl)phenyl]-1-propyl-piperidine in an amount of 10 or 30 mg/kg in a saline vehicle or the vehicle per se was injected 15 minutes before the dopamine D2 agonist quinpirole in an amount of 0.1 mg/kg in a saline vehicle or the saline vehicle per se was administered to the animals. The animals were then placed individually in a 6″×6″plexiglass observation cages and the number of yawns were counted for the subsequent 30 minutes. The results are shown in FIG. 1 with the data being expressed as the mean total number of yawns per 30 minutes. […]

CCCN1CCC[C@@H]2Cc3n[nH]cc3C[C@H]21 [quinpirole]
mean total number of yawns per 30 minutes: 13-15 yawns per 30 minutes
